# This is a selection; strong and weak results do not stand in their true shares. Some tests of the compounds listed are not included; inactive here does not mean inactive elsewhere. Calls of active or inactive are those of the source.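 The calls were made as follows: active = response, share of CD8 T cells binding vesicles, and their 90th percentile fluorescence all below set limits (cut at about 80% in these data, passing the limit was not always enough); inactive = the rest, inconclusive results apart.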
# Assay: murine CD8 T cell vesicle adhesion modulation – mouse 2C CD8+ T cells, flow cytometry, primary screen (AID 2052);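 also: values below 100% mean blocked vesicle binding to the CD8+ T cells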
# Conditions: 2C CD8+ T cell-vesicle binding, at 7 µM, hits give low values
# Summary of the method: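 Assay system – 2C mouse CD8+ T cells · Also added – QL9-loaded Drosophila micro-vesicles · Timing – Cell–vesicle co-incubation 1.5 h at 37 °C, staining 20 min on ice · Signal – flow cytometry of vesicle-bound cells · Measure – percent CD8+ FL2 mean versus row control · Controls – Peptide-free naked vesicles (low) and QL9 vesicles with 0.7% DMSO vehicle (high)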
row,Structure (SMILES),response (vesicle binding)
1,COc1ccc(Cl)cc1C(=O)NCC1(N(C)C)CCCCC1,inactive: 78%
2,COc1cccc(C(=O)NCC2(N3CCCCC3)CCCCC2)c1,inactive: 278%
3,O=C(NCC1(N2CCCCC2)CCCCC1)c1cccc(Cl)c1,inactive: 119%
4,CN(C)C1(CNC(=O)c2ccc(Br)cc2)CCCCC1,inactive: 63.1%
5,COc1cc(C(=O)NCC2(N(C)C)CCCCC2)c([N+](=O)[O-])cc1OC,inactive: 30.6%
6,COc1ccc(Br)c(C(=O)NCC2(N3CCCCC3)CCCCC2)c1,inactive: 247%
7,CC(C)Oc1ccc(C(=O)NCC2(N(C)C)CCCCC2)cc1,inactive: 147%
8,CN(C)c1cccc(C(=O)NCC2(N(C)C)CCCCC2)c1,inactive: 471%
9,O=C(OC1CN2CCC1CC2)C(CO)(c1ccccc1)c1ccccc1 (centres undefined),inactive: 374%
10,COc1cc(SC)ccc1C(=O)NCC1(N(C)C)CCCCC1,inactive: 198%
11,CCN(CC)CC(C)C(C)OC(=O)C(O)(c1ccccc1)c1ccccc1 (centres undefined),inactive: 299%
12,CC(C)N1C(=O)CC2(CCN(CCOC(=O)C(O)(c3ccccc3)c3ccccc3)CC2)C1=O,inactive: 524%
13,Cc1ccc(C(=O)NCC2(N3CCCCC3)CCCCC2)cc1,inactive: 235%
14,O=C(NCC1(N2CCCCC2)CCCCC1)c1cc([N+](=O)[O-])ccc1Cl,inactive: 487%
15,CN1[C@@H]2CC[C@H]1CC(OC(=O)C(O)(c1ccccc1)c1ccccc1)C2 (some centres undefined),inactive: 568%
16,O=C(NCC1(N2CCCCC2)CCCCC1)c1cc(F)c(F)cc1Cl,inactive: 132%
17,C=CCN1CCN(CCOC(=O)C(O)(c2ccccc2)c2ccccc2)CC1,inactive: 293%
18,COc1ccc(C(=O)NCC2(N(C)C)CCCCC2)cc1,inactive: 119%
19,O=C(NCC1(N2CCCCC2)CCCCC1)c1cccc(Br)c1,inactive: 251%
20,Cc1cc(C(=O)NCC2(N3CCCCC3)CCCCC2)ccc1[N+](=O)[O-],inactive: 204%
21,CCN1CCCC(OC(=O)C2(O)c3ccccc3C=Cc3ccccc32)C1 (centres undefined),inactive: 155%
22,CN(C)C1CCCC1OC(=O)C(O)(c1ccccc1)c1ccccc1 (centres undefined),inactive: 207%
23,CN(C)c1ccc(C(=O)NCC2(N(C)C)CCCCC2)cc1,inactive: 758%
24,Cc1ccccc1C(=O)NCC1(N2CCCCC2)CCCCC1,inactive: 242%

# Reference: PubChem BioAssay AID2052 (NMMLSC, 2009)
